# Antibody variant affinities, Ab-91 heavy chain, assay 2

All variants were tested on one target, the spike HR2 peptide PDVDLGDISGINAS (SARS-CoV-2).

Parent: Ab-91, a human scFv built as VL, a (GGGGS)3 linker, VH. Only the CDRs of the heavy chain vary.
VL: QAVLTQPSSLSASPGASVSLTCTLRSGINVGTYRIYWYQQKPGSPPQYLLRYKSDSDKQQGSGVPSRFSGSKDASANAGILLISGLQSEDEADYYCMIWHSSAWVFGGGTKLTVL
VH: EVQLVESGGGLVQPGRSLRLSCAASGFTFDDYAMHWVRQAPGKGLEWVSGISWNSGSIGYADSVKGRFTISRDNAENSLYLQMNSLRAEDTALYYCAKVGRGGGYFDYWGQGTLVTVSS

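The starting antibody came from a phage panning campaign against this peptide. The library (AAYL51) carries one to three amino acid substitutions per variant, with no insertions or deletions. The assay is AlphaSeq: two haploid yeast populations carry antibody and antigen on their surface. Pairs that bind mate more often; barcode pairs of the diploids are counted by sequencing. Read counts were normalised to the haploid input and turned into Kd by a linear fit to BCL2-family pairs of known affinity, for each replicate. There are three technical replicates.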

Changes read parent residue, position, new residue, counted from the first residue of the VH shown.
Numbers give log10(Kd / nM), so 0 is 1 nM and 3 is 1 µM. Smaller is tighter.
A mean of the replicates is given; it leaves out those without a signal.
An entry "no signal" has no value in the source: the pair was not observed among the diploids in any replicate. This suggests poor binding but is not conclusive.
Three control strains display no target. For library AAYL51, 21% of the pairings with them gave a signal, with a median of 4.54 and one signal in twenty below 3.26, so weak values seen in few replicates may be background. Also given: how often the same scFv was detected with the empty control strains.
For reference, the parent read 1.86 as the reference entry and 0.88 as a member of this library.

For V64L/V99S/G104T, the assay gave 5.21 (1 of 3 replicates; controls 3 of 9).
For F29M/D31S/D62W, the assay gave 2.93 (3 of 3 replicates; controls 6 of 9).
For D31V/I51Q/G56T, the assay gave no signal (0 of 3 replicates; controls 1 of 9).
For G50Q/S55H/V99D, the assay gave no signal (0 of 3 replicates; controls 0 of 9).
For G26K/T28N/V64F, the assay gave 2.76 (3 of 3 replicates; controls 2 of 9).
For S57P/A61K/D62F, the assay gave no signal (0 of 3 replicates; controls 1 of 9).
For I51C/A61L/G102I, the assay gave no signal (0 of 3 replicates; controls 0 of 9).
For A61W/G100N/R101W, the assay gave no signal (0 of 3 replicates; controls 1 of 9).
For F27L/S52K/G100D, the assay gave 5.38 (3 of 3 replicates; controls 7 of 9).
For I51Q/I58Q/R101L, the assay gave 3.57 (1 of 3 replicates; controls 0 of 9).
For F29Q/N54P/V64R, the assay gave 5.62 (2 of 3 replicates; controls 2 of 9).
For F27K/Y32N/D107G, the assay gave no signal (0 of 3 replicates; controls 0 of 9).
For W53N/K65V/V99N, the assay gave 5.12 (3 of 3 replicates; controls 6 of 9).
For A61M/K65N/V99P, the assay gave no signal (0 of 3 replicates; controls 1 of 9).
For F27M/D30Q/Y108Q, the assay gave no signal (0 of 3 replicates; controls 0 of 9).
For F29N/D30V/V99E, the assay gave 5.68 (1 of 3 replicates; controls 4 of 9).
For A33L/S57A, the assay gave 4.31 (2 of 3 replicates; controls 5 of 9).
For N54V/D107W, the assay gave 4.55 (1 of 3 replicates; controls 0 of 9).
For A33N/G50F/G100T, the assay gave no signal (0 of 3 replicates; controls 0 of 9).
For I58H/K65F/Y108D, the assay gave no signal (0 of 3 replicates; controls 2 of 9).
For S55Q/G59W/G103D, the assay gave 6.06 (1 of 3 replicates; controls 2 of 9).
For D30H/D31T/K65N, the assay gave 0.97 (3 of 3 replicates; controls 0 of 9).
For F27S/T28Y/A33W, the assay gave no signal (0 of 3 replicates; controls 0 of 9).
For D31S/W53G/G104V, the assay gave 0.54 (3 of 3 replicates; controls 4 of 9).
For S52F/N54P/S57Y, the assay gave no signal (0 of 3 replicates; controls 0 of 9).
For F29Q/D31Y/R101Y, the assay gave 4.74 (3 of 3 replicates; controls 3 of 9).
For F29H/S63D, the assay gave 4.32 (3 of 3 replicates; controls 2 of 9).
For S63C/R101E/G104A, the assay gave 3.93 (1 of 3 replicates; controls 1 of 9).
For Y32F/G56P/R101L, the assay gave no signal (0 of 3 replicates; controls 0 of 9).
For I58Y/G100R/G103W, the assay gave 5.60 (1 of 3 replicates; controls 2 of 9).
For T28N/I51T/F106P, the assay gave 3.88 (2 of 3 replicates; controls 4 of 9).
For G26H/D62N/V64H, the assay gave no signal (0 of 3 replicates; controls 0 of 9).
For A33F/G50F/V99K, the assay gave 3.07 (2 of 3 replicates; controls 0 of 9).
For D31P/Y60S/Y105K, the assay gave no signal (0 of 3 replicates; controls 1 of 9).
For S57F/I58D/V99L, the assay gave 4.60 (3 of 3 replicates; controls 2 of 9).
For F29V/H35Y/F106Q, the assay gave no signal (0 of 3 replicates; controls 1 of 9).
For V64P/K65P/G102R, the assay gave 5.05 (2 of 3 replicates; controls 7 of 9).
For G56L/Y60A/G100T, the assay gave 2.22 (3 of 3 replicates; controls 4 of 9).
For Y32T/M34H/N54Y, the assay gave 4.76 (1 of 3 replicates; controls 3 of 9).
For S57F/K65Y/Y108N, the assay gave 4.48 (3 of 3 replicates; controls 4 of 9).
For D30G/G56W/G100S, the assay gave no signal (0 of 3 replicates; controls 0 of 9).
For G26V/H35T/G100P, the assay gave no signal (0 of 3 replicates; controls 0 of 9).
For M34S/Y105A/F106K, the assay gave 3.96 (1 of 3 replicates; controls 2 of 9).
For N54L/S63L/Y105A, the assay gave 4.00 (1 of 3 replicates; controls 0 of 9).
For F29L/M34C/G100P, the assay gave no signal (0 of 3 replicates; controls 2 of 9).

Excerpt, the first 7 entries:

With V64L/V99S/G104T the result was 5.21 (1 of 3 replicates; controls 3 of 9).
With F29M/D31S/D62W the result was 2.93 (3 of 3 replicates; controls 6 of 9).
With D31V/I51Q/G56T the result was no signal (0 of 3 replicates; controls 1 of 9).
With G50Q/S55H/V99D the result was no signal (0 of 3 replicates; controls 0 of 9).
With G26K/T28N/V64F the result was 2.76 (3 of 3 replicates; controls 2 of 9).
With S57P/A61K/D62F the result was no signal (0 of 3 replicates; controls 1 of 9).
With I51C/A61L/G102I the result was no signal (0 of 3 replicates; controls 0 of 9).

Source: Engelhart et al. 2022 (doi:10.1038/s41597-022-01779-4), MIT Lincoln Laboratory and A-Alpha Bio; data file from the FLAb repository.